Source: PubChem BioAssay AID651768 (National Center for Advancing Translational Sciences (NCATS), 2012)
This is a selection; strong and weak results do not stand in their true shares. Some salts or complexes appear as unconnected parts, following the source record. The source made the active and inactive calls. The call rests on the fitted dose curve; in most records, active means well fitted inhibition curve with a large enough effect; inconclusive means small, poorly fitted or top-dose-only effect; inactive means no such curve, though single readings can be large or run the other way.

Chains of the proteins cited; added tags and fusions are not shown.
UniProt Q14191, whole entry: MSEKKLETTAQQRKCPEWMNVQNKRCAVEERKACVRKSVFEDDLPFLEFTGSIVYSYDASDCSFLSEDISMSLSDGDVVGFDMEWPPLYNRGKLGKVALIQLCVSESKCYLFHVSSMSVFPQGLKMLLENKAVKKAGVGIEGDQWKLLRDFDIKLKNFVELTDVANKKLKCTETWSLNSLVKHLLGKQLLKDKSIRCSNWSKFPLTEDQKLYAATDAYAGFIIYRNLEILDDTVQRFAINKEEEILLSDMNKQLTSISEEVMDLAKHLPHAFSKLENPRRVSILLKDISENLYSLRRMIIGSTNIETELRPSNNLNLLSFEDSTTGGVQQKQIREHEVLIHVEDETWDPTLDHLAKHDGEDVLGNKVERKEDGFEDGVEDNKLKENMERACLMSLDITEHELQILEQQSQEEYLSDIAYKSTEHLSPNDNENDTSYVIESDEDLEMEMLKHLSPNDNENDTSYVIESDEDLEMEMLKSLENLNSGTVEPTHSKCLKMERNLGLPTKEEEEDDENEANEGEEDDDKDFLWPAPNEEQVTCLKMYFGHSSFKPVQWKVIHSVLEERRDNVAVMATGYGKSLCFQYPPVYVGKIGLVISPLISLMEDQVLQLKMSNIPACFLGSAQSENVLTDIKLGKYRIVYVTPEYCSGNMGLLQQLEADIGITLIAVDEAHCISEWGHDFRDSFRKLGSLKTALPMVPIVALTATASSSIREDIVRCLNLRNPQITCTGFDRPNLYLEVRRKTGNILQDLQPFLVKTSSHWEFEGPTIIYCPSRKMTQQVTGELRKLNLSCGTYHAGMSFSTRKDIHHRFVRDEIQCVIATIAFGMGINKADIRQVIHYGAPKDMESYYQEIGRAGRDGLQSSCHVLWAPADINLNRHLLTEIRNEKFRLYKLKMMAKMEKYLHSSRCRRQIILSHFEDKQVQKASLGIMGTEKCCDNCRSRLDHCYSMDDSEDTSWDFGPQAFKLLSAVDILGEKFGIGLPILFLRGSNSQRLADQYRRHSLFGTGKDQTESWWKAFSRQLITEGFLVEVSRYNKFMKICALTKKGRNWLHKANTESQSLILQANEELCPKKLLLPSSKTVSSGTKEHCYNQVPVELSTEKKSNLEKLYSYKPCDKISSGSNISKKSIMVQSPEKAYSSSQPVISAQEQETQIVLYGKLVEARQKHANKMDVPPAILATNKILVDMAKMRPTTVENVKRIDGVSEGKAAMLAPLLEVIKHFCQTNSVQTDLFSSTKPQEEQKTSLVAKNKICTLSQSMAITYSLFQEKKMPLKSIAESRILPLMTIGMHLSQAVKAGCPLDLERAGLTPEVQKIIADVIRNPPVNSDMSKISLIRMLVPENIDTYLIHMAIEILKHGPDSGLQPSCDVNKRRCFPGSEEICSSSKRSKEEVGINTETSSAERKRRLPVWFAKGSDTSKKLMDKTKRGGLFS

target: Bifunctional 3'-5' exonuclease/ATP-dependent helicase WRN (Homo sapiens) (UniProt Q14191); assay: qHTS for Inhibitors of WRN Helicase; settings: WRN helicase unwinding, fluorescent forked duplex, kinetic; at 114 µM (top of the series) unless noted; further: nearly all actives have a fitted effect of over 55% in size
Summary of the method: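 Kinetic red-fluorescence monitoring (525/598 nm) tracks WRN helicase activity after 100 nM fluorophore-quencher forked duplex and 2 mM ATP are added to 20 nM enzyme pretreated 15 min at room temperature with compound.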
On the % scale 0 is the no-effect control and ±100 the full control effect.

Q: `CN(C)c1cccc(C(=O)NCC2(N3CCCCC3)CCCCC2)c1` was tested. Which activity change, negative = inhibition did it give?
A: inactive: 4.66%

Q: How did the activity change, negative = inhibition turn out when `O=[N+]([O-])c1cc([N+](=O)[O-])c(OC2CCCCC2O)c([N+](=O)[O-])c1` (stereo unspecified) was run?
A: inactive: -12.9%

Q: Which activity change, negative = inhibition does the source give for `COc1ccc(CN(CCCl)CCCl)cc1Cl` here?
A: inactive: 3.05%

Q: For `COc1ccc(C(c2nnnn2C2CCCC2)N2CCC(n3c(=O)[nH]c4ccccc43)CC2)cc1` (stereo unspecified), which activity change, negative = inhibition is on record?
A: inactive: 2.01%

Q: Which activity change, negative = inhibition does the source give for `O=[N+]([O-])c1cc([N+](=O)[O-])c(Nc2ccc(Cl)cc2)c([N+](=O)[O-])c1` here?
A: inactive: -13.1%

Q: Which activity change, negative = inhibition does the source give for `CCCOc1ccc(C(=O)NCC2(N(C)C)CCCCC2)cc1OC` here?
A: inactive: 13.8%

Q: Which activity change, negative = inhibition does the source give for `Cc1ccc(C(=O)NCC2(N(C)C)CCCCC2)o1` here?
A: inactive: 4.76%

Q: Which activity change, negative = inhibition does the source give for `O=C(OC1CN2CCC1CC2)c1ccc([N+](=O)[O-])cc1` (stereo unspecified) here?
A: inactive: -5.61%

Q: `CN1CCC(Nc2cccc(F)c2)CC1` was tested. Which activity change, negative = inhibition did it give?
A: inactive: 0.619%

Q: How did the activity change, negative = inhibition turn out when `COc1ccc2c(c1O)-c1c(O)c(OC)cc3c1[C@H](C2)[N+](C)(C)CC3.O=[N+]([O-])c1cc([N+](=O)[O-])c([O-])c([N+](=O)[O-])c1[O-]` was run?
A: inactive: -5.19%

Q: For `O=C(NCC1(N2CCCCC2)CCCCC1)c1cncc(Br)c1`, which activity change, negative = inhibition is on record?
A: inactive: -18.1%

Q: For `O=c1[nH]c2ccccc2n1C1CCN(C(c2ccccc2OC(F)(F)F)c2nnnn2C2CCCC2)CC1` (stereo unspecified), which activity change, negative = inhibition is on record?
A: inactive: -13.3%

Q: Which activity change, negative = inhibition does the source give for `N#CC1(Nc2ccccc2)CCN(CCc2ccccc2)CC1` here?
A: inactive: 8.73%

Q: How did the activity change, negative = inhibition turn out when `CCN1CCC(Nc2ccc(Cl)cc2)CC1` was run?
A: inactive: 0.827%

Q: With `CSc1ccc(C(=O)NCC2(N3CCOCC3)CCCCC2)cc1` as the compound, how does the activity change, negative = inhibition read?
A: inactive: 18.8%

Q: For `O=C(NCC1(N2CCCCC2)CCCCC1)c1cccc([N+](=O)[O-])c1`, which activity change, negative = inhibition is on record?
A: inactive: 4.39%

Q: With `O=C(NCC1(N2CCCCC2)CCCCC1)c1ccc(OC(F)F)cc1` as the compound, how does the activity change, negative = inhibition read?
A: inactive: 1.93%

Q: With `CC(C)(C)n1nnnc1C(c1ccccc1OC(F)(F)F)N1CCC(n2c(=O)[nH]c3ccccc32)CC1` (stereo unspecified) as the compound, how does the activity change, negative = inhibition read?
A: inactive: -5.87%

Q: With `O=C(NCC1(N2CCOCC2)CCCCC1)c1cc(=O)[nH]c2ccccc12` as the compound, how does the activity change, negative = inhibition read?
A: inactive: 12%

Q: `COc1cc(C(=O)NCC2(N3CCCCC3)CCCCC2)ccc1OC(F)F` was tested. Which activity change, negative = inhibition did it give?
A: inactive: -6.49%

Q: `CC(C)c1ccc(C(=O)NCC2(N3CCOCC3)CCCCC2)cc1` was tested. Which activity change, negative = inhibition did it give?
A: inactive: -7.01%

Q: For `COc1ccc(NC2CCN(C(=O)OC(C)(C)C)CC2)cc1`, which activity change, negative = inhibition is on record?
A: inactive: -2.37%

Q: With `CN1CCN(CCOC(=O)C(O)(c2ccccc2)c2ccccc2)CC1` as the compound, how does the activity change, negative = inhibition read?
A: inactive: 5%

Q: `CCCCn1nnnc1C(c1cccc2ccccc12)N1CCC(n2c(=O)[nH]c3ccccc32)CC1` (stereo unspecified) was tested. Which activity change, negative = inhibition did it give?
A: inactive: -7.76%

Q: For `O=[N+]([O-])c1cc([N+](=O)[O-])c(NCC2CCS(=O)(=O)C2)c([N+](=O)[O-])c1` (stereo unspecified), which activity change, negative = inhibition is on record?
A: inactive: -12.9%

Q: For `O=C(NCC1(N2CCCCC2)CCCCC1)c1cccc(C(F)(F)F)c1`, which activity change, negative = inhibition is on record?
A: inactive: -2.16%
